Test results published in patent publication US8455440B2, “Combination anticoagulant therapy with a compound that acts as a factor Xa inhibitor” (Millennium Pharmaceuticals, Inc., priority 2007, dated 2013).

Test system: venous thromboembolism (VTE)
Experiment: Prospective randomized trial for prevention of venous thromboembolic events after total knee replacement
Conditions: Enoxaparin 30 mg bid

Enoxaparin [reference compound] was tested, and the “Major Bleeds %” value was 2.3%.
